Experimental data: patent publication US4198415A, “Prolactin inhibiting octahydro pyrazolo[3,4-g]quinolines” (Eli Lilly and Company, priority 1979, dated 1980)

Key:
[1] = system: 6-hydroxydopamine-lesioned rats; assay: turning behavior in 6-hydroxydopamine-lesioned rats (rat turning test, Parkinsonism); settings: in vivo, ip, dihydrochloride
Experimental: In this test, nigroneostriatal-lesioned rats are employed, as prepared by the procedure of Ungerstedt and Arbuthnott, Brain Res, 24, 485 (1970). A compound having dopamine agonist activity causes the rats to turn in circles contralateral to the side of the lesion. After a latency period, which varies from compound to compound, the number of turns is counted over a 15-minute period.
The compounds were dissolved in water and the aqueous solution injected into the rat by the intraperitoneal route at dose levels of 1 mg/kg. and 100 mcg/kg.

[2] = system: prolactin; assay: inhibition of prolactin secretion in reserpine-treated male rats (serum prolactin); parameters: species or system rat (Sprague-Dawley); settings: rat, in vivo; dihydrochloride
Experimental: Adult male rats of the Sprague-Dawley strain weighing about 200 g. were housed in an air-conditioned room with controlled lighting (lights on 6 a.m.-8 p.m.) and fed lab chow and water ad libitum. Each rat received an intraperitoneal injection of 2.0 mg. of reserpine in aqueous suspension 18 hours before administration of the test drug. The purpose of the reserpine was to keep prolactin levels uniformly elevated. The compounds under test were dissolved in 10 percent ethanol, and were injected intraperitoneally at doses of 50 mcg/kg and 0.5 and 5 mg/kg. Each compound was administered at each dose level to a group of 10 rats, and a control group of 10 intact males received an equivalent amount of 10 percent ethanol. One hour after treatment, all rats were killed by decapitation, and 150 μl aliquots of serum were assayed for prolactin.

For CCCN1CCC[C@H]2Cc3n[nH]cc3C[C@@H]21 (relative stereo) [trans-dl-5-n-propyl-4,4a,5,6,7,8,8a,9-octahydro-1H and 2H-pyrazolo[3,4-g]quinoline dihydrochloride], the “% of Rats Exhibiting Turning Behavior” value [1] was 100% and 75%, the “Average Number of Turns/rat” value [1] was 80 and 66 and the “Percent Prolactin Inhibition” value [2] was 61 and 91.

“And” between values parts separate entries of the source, which are not always exact repeats. Equal entries are not always repeated. Structures can show the parent of a compound that is named as a salt.
